Experimental data as given in ChEMBL document CHEMBL4808148, “HDAC6 screening dataset using tau-based substrate in an enzymatic assay yields selective inhibitors and activators” (2021).
The entries are a selection whose mix differs from that of the whole data set.

Each compound was assayed against T1, Protein deacetylase HDAC6 (Homo sapiens) (UniProt Q9UBN7). Settings: at 10 µM.
T1 sequence (whole entry): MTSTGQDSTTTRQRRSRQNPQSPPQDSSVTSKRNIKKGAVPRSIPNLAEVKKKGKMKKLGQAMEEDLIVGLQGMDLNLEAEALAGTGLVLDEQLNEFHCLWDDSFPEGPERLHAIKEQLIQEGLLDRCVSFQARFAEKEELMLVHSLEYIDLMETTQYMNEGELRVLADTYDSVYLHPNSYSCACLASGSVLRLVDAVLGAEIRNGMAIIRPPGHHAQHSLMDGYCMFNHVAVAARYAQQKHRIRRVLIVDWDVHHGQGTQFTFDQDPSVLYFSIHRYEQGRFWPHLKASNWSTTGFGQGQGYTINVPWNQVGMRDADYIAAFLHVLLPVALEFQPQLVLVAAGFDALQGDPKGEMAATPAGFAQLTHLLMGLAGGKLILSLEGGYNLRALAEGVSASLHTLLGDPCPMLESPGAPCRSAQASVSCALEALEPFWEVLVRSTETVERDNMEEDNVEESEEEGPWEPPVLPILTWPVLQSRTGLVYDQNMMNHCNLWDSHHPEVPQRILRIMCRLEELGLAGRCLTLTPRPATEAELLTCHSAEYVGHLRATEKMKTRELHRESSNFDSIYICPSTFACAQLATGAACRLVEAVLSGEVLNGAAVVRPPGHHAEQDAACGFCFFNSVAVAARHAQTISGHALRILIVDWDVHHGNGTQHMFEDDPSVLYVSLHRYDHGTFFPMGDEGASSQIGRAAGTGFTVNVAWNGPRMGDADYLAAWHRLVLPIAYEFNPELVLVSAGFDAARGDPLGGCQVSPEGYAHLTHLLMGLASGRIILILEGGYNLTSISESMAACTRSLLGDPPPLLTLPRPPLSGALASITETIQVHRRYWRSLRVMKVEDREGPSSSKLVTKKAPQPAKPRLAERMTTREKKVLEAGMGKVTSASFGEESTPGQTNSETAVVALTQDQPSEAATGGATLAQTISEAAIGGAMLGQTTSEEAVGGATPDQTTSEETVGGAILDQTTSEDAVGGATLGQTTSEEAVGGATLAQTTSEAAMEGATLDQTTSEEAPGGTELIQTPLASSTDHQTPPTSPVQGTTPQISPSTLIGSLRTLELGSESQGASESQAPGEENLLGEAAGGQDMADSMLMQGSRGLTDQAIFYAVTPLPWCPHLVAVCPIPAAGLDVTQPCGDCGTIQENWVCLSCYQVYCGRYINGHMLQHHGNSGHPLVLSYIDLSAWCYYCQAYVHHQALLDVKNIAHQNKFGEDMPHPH
O=C(OC1CN2CCC1CC2)c1ccccc1 (centres undefined) gave an inhibition of -0.28%.
Work on O=P(O)(O)F yielded an inhibition of 15.2%.
CN(C)[C@]1(c2ccccc2)CC[C@]2(CC1)OCCc1c3cc(F)ccc3[nH]c12 showed an inhibition of -7.28%.
With CN(C(=O)Cc1ccc(Cl)c(Cl)c1)[C@H]1CCCC[C@@H]1N1CCCC1 the inhibition was 23.9%.
